Tests used:
proton pumps = details: cited from earlier work
[1] = in vivo; cited from earlier work
[2] = Photostability (light exposure) test, XRPD and HPLC; details: for Purity of starting material (before light exposure) / Purity after light exposure: HPLC; for Purity of starting material (before light exposure): baseline; for Photostability, crystal form B compared with crystal form A / XRPD crystal form after light exposure / Purity after light exposure: total illumination 1.2×10^6 Lux hr; for XRPD crystal form after light exposure / Purity after light exposure: 5000 Lux, 90 uV/cm^2
[3] = Stability test: crystal form by XRPD and chemical purity by HPLC after exposure to temperature/humidity; details: for Purity after stability study: HPLC
[4] = Hygroscopicity test by dynamic vapour sorption (DVS), XRPD before and after; details: listed as Crystal form B
[5] = Thermogravimetric analysis (TGA) weight loss; details: 0-150 °C

Question: For `Cc1nc2c(O[C@H]3CCOc4cc(F)cc(F)c43)cc(C(=O)N(C)C)cc2[nH]1`, which “Inhibition of resting and active proton pumps” value (proton pumps) is on record?
Answer: Its value is “inhibits both resting and active proton pumps simultaneously”.

Question: What about the Half-life period [1] of the same compound?
Answer: Its Half-life period is “long half-life period”.

Question: Which “Purity of starting material (before light exposure)” value [2] does the source give for `Cc1nc2c(O[C@H]3CCOc4cc(F)cc(F)c43)cc(C(=O)N(C)C)cc2[nH]1` [crystal form A] here?
Answer: Its value is “is 99.8%)”.

Question: What about the “Photostability, crystal form B compared with crystal form A” value [2] of the same compound?
Answer: Its value is “the same photostability”.

Question: What about the “XRPD crystal form after light exposure” value [2] of the same compound?
Answer: The value was “form A”.

Question: What about the “Purity after light exposure” value [2] of the same compound?
Answer: The value was 99.8% (The.

Question: And the “XRPD crystal form after stability study” value ([3]; 25 °C/60% RH, two weeks)?
Answer: The value was “crystal form A”.

Question: What about the “Purity after stability study” value ([3]; 25 °C/60% RH, two weeks) of the same compound?
Answer: Its value is 99.6%.

Question: And the “XRPD crystal form after stability study” value ([3]; 25 °C/92.5% RH, two weeks)?
Answer: The value was “crystal form A”.

Question: And the “Purity after stability study” value ([3]; 25 °C/92.5% RH, two weeks)?
Answer: Its value is 99.7%.

Question: What about the “XRPD crystal form after stability study” value ([3]; 40 °C/75% RH, two weeks) of the same compound?
Answer: Its value is “crystal form A”.

Question: And the “Purity after stability study” value ([3]; 40 °C/75% RH, two weeks)?
Answer: Its value is 99.5%.

Question: With `Cc1nc2c(O[C@H]3CCOc4cc(F)cc(F)c43)cc(C(=O)N(C)C)cc2[nH]1` [crystal form B] as the compound, how does the “Change of crystal form before and after hygroscopicity test” value ([4]; 0-90-0% RH, XRPD) read?
Answer: Its value is “unchanged, still crystal”.

Question: What about the “Weight gain (moisture adsorption)” value ([4]; 60%-80% relative humidity, DVS) of the same compound?
Answer: Its value is 0.31%.

Question: What about the “Purity of starting material (before light exposure)” value [2] of the same compound?
Answer: Its value is “is 99.8%)”.

Question: What about the “Photostability, crystal form B compared with crystal form A” value [2] of the same compound?
Answer: The value was “the same photostability”.

Question: And the “XRPD crystal form after light exposure” value [2]?
Answer: Its value is “form B”.

Question: And the “Purity after light exposure” value [2]?
Answer: Its value is 99.8% (The.

Question: And the “Change in chemical purity after illumination” value ([2]; total illumination not less than 1.2×10^6 Lux hr)?
Answer: Its value is “no significant change”.

Question: And the TGA weight loss [5]?
Answer: The TGA weight loss was “about 0.67%”.

Question: What about the “TGA weight loss (general statement)” value ([5]; heating rate 10 °C/min) of the same compound?
Answer: Its value is “no more than 2%”.

Question: And the “TGA weight loss (preferably)” value ([5]; heating rate 10 °C/min)?
Answer: Its value is “no more than 0.7%”.

Question: What about the “Water absorption / transformation into another crystal form” value ([3]; 25 °C and 92.5% RH) of the same compound?
Answer: Its value is “will not absorb water molecules or transform into any other crystal form”.

Question: And the Storage time ([3]; 25 °C/60% RH, 40 °C/75% RH and 25 °C/92.5% RH)?
Answer: The Storage time was “at least two”.

Question: What about the “XRPD crystal form after stability study” value ([3]; 25 °C/60% RH, two weeks) of the same compound?
Answer: Its value is “crystal form B”.

Question: What about the “Purity after stability study” value ([3]; 25 °C/60% RH, two weeks) of the same compound?
Answer: Its value is 99.8%.

Question: What about the “XRPD crystal form after stability study” value ([3]; 25 °C/92.5% RH, two weeks) of the same compound?
Answer: The value was “crystal form B”.

Question: And the “Purity after stability study” value ([3]; 25 °C/92.5% RH, two weeks)?
Answer: Its value is 99.7%.

Question: What about the “XRPD crystal form after stability study” value ([3]; 40 °C/75% RH, two weeks) of the same compound?
Answer: Its value is “crystal form B”.

Question: What about the “Purity after stability study” value ([3]; 40 °C/75% RH, two weeks) of the same compound?
Answer: The value was 99.7%.

Question: And the “XRPD before and after the stability test” value ([3]; FIG. 7)?
Answer: Its value is “unchanged”.

Question: What about the “Stability compared with crystal form A” value ([3]; three humidity and temperature conditions, two weeks) of the same compound?
Answer: The value was “equivalent stability as crystal form A”.
